This experiment concerns the target T1, Tyrosine-protein phosphatase non-receptor type 1 (Homo sapiens) (UniProt P18031).
T1 sequence (whole entry): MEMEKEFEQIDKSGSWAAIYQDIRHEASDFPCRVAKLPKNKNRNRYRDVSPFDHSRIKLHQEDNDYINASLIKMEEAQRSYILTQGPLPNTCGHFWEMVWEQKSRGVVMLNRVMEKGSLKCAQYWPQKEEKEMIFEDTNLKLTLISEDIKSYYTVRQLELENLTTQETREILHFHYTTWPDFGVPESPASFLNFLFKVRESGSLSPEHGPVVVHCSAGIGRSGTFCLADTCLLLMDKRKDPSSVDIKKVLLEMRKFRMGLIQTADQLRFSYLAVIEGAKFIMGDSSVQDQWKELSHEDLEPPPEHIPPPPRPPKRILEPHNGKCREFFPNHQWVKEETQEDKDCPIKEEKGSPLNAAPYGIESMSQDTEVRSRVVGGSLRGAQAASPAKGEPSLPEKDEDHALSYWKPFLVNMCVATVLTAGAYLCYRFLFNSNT
The experiment in a line: Competitive inhibition of recombinant human PTP1B using p-NPP as substrate at varying concentrations assessed as constant Vmax at 2.5 to 10 uM incubated for 30 mins by Lineweaver-Burk plot analysis. The note with it: dose 2.5-10 µM.

Calls of active or inactive are those of the source. No cut-off for these calls is given here.

For `CC1(C)[C@@H](O)CC[C@@]2(C)[C@H]1CC[C@@]1(C)CC3=CC[C@H]4C(C)(C)[C@@H](O)CC[C@]4(C)[C@H]3CC[C@@H]12`, the inhibition entry is “Active”.

These data come from ChEMBL document CHEMBL6127021, “Inhibition of protein tyrosine phosphatase 1B by serratane triterpenes from Huperzia serrata and their molecular docking study” (Bioorg Med Chem Lett, 2024).
